Reference: the Human Domainome abundance scans (Beltran et al. 2025)
± gives the uncertainty stated by the source.

B1: X-ray repair cross-complementing protein 6, residues 558 to 609; numbered along this chain, P12956 (parent)
chain: EYSEEELKTHISKGTLGKFTVPMLKEACRAYGLKSGLKKQELLEALTKHFQD

Variants of: B1
Assay: abundance fitness (aPCA) (normalised: wild type 0, dead -1); higher = more abundant; growth selection in yeast, the domain comes from the species named
Conditions: Homo sapiens

Point of comparison: EYSEEELKTHISKGTLGKFTVPMLKEACRAYGLKSGLPKQELLEALTKHFQD [K38P], abundance fitness -0.256 ± 0.097. Against it:
- EYSEEELKTHISKGTLGKFTVPMLKEACRAYGLKSGLIKQELLEALTKHFQD [K38I] — within error, -0.299 ± 0.049
- EYSEEELKTHISKGTLGKFTVPMLKEACRAYGLKSGLLKQELLEALTKHFQD [K38L] — higher, -0.107 ± 0.044
- EYSEEELKTHISKGTLGKFTVPMLKEACRAYGLKSGLMKQELLEALTKHFQD [K38M] — within error, -0.233 ± 0.077
- EYSEEELKTHISKGTLGKFTVPMLKEACRAYGLKSGLNKQELLEALTKHFQD [K38N] — within error, -0.178 ± 0.11
- EYSEEELKTHISKGTLGKFTVPMLKEACRAYGLKSGLQKQELLEALTKHFQD [K38Q] — higher, -0.055 ± 0.082
- EYSEEELKTHISKGTLGKFTVPMLKEACRAYGLKSGLRKQELLEALTKHFQD [K38R] — higher, -0.101 ± 0.045
- EYSEEELKTHISKGTLGKFTVPMLKEACRAYGLKSGLSKQELLEALTKHFQD [K38S] — within error, -0.133 ± 0.064
- EYSEEELKTHISKGTLGKFTVPMLKEACRAYGLKSGLTKQELLEALTKHFQD [K38T] — within error, -0.091 ± 0.082
- EYSEEELKTHISKGTLGKFTVPMLKEACRAYGLKSGLVKQELLEALTKHFQD [K38V] — within error, -0.198 ± 0.04
- EYSEEELKTHISKGTLGKFTVPMLKEACRAYGLKSGLWKQELLEALTKHFQD [K38W] — lower, -0.79 ± 0.063
- EYSEEELKTHISKGTLGKFTVPMLKEACRAYGLKSGLYKQELLEALTKHFQD [K38Y] — within error, -0.343 ± 0.11
- EYSEEELKTHISKGTLGKFTVPMLKEACRAYGLKSGLKDQELLEALTKHFQD [K39D] — lower, -1.05 ± 0.2
- EYSEEELKTHISKGTLGKFTVPMLKEACRAYGLKSGLKEQELLEALTKHFQD [K39E] — lower, -0.658 ± 0.068
- EYSEEELKTHISKGTLGKFTVPMLKEACRAYGLKSGLKFQELLEALTKHFQD [K39F] — lower, -0.857 ± 0.2
- EYSEEELKTHISKGTLGKFTVPMLKEACRAYGLKSGLKGQELLEALTKHFQD [K39G] — lower, -0.606 ± 0.049
- EYSEEELKTHISKGTLGKFTVPMLKEACRAYGLKSGLKHQELLEALTKHFQD [K39H] — within error, -0.083 ± 0.11
- EYSEEELKTHISKGTLGKFTVPMLKEACRAYGLKSGLKIQELLEALTKHFQD [K39I] — lower, -0.835 ± 0.22
- EYSEEELKTHISKGTLGKFTVPMLKEACRAYGLKSGLKLQELLEALTKHFQD [K39L] — lower, -0.487 ± 0.067
- EYSEEELKTHISKGTLGKFTVPMLKEACRAYGLKSGLKMQELLEALTKHFQD [K39M] — lower, -1.09 ± 0.23
- EYSEEELKTHISKGTLGKFTVPMLKEACRAYGLKSGLKNQELLEALTKHFQD [K39N] — lower, -0.998 ± 0.26
- EYSEEELKTHISKGTLGKFTVPMLKEACRAYGLKSGLKPQELLEALTKHFQD [K39P] — within error, -0.381 ± 0.064
- EYSEEELKTHISKGTLGKFTVPMLKEACRAYGLKSGLKQQELLEALTKHFQD [K39Q] — within error, -0.239 ± 0.1
- EYSEEELKTHISKGTLGKFTVPMLKEACRAYGLKSGLKRQELLEALTKHFQD [K39R] — within error, -0.12 ± 0.039
- EYSEEELKTHISKGTLGKFTVPMLKEACRAYGLKSGLKSQELLEALTKHFQD [K39S] — lower, -0.648 ± 0.058
- EYSEEELKTHISKGTLGKFTVPMLKEACRAYGLKSGLKVQELLEALTKHFQD [K39V] — lower, -0.572 ± 0.036
- EYSEEELKTHISKGTLGKFTVPMLKEACRAYGLKSGLKWQELLEALTKHFQD [K39W] — lower, -0.893 ± 0.07
- EYSEEELKTHISKGTLGKFTVPMLKEACRAYGLKSGLKYQELLEALTKHFQD [K39Y] — lower, -0.652 ± 0.077
- EYSEEELKTHISKGTLGKFTVPMLKEACRAYGLKSGLKKAELLEALTKHFQD [Q40A] — higher, -0.063 ± 0.042
- EYSEEELKTHISKGTLGKFTVPMLKEACRAYGLKSGLKKCELLEALTKHFQD [Q40C] — within error, -0.123 ± 0.048
- EYSEEELKTHISKGTLGKFTVPMLKEACRAYGLKSGLKKDELLEALTKHFQD [Q40D] — higher, 0.122 ± 0.093
- EYSEEELKTHISKGTLGKFTVPMLKEACRAYGLKSGLKKEELLEALTKHFQD [Q40E] — higher, 0.102 ± 0.062
- EYSEEELKTHISKGTLGKFTVPMLKEACRAYGLKSGLKKFELLEALTKHFQD [Q40F] — within error, -0.378 ± 0.096
- EYSEEELKTHISKGTLGKFTVPMLKEACRAYGLKSGLKKGELLEALTKHFQD [Q40G] — higher, -0.098 ± 0.047
- EYSEEELKTHISKGTLGKFTVPMLKEACRAYGLKSGLKKHELLEALTKHFQD [Q40H] — higher, 0.017 ± 0.1
- EYSEEELKTHISKGTLGKFTVPMLKEACRAYGLKSGLKKIELLEALTKHFQD [Q40I] — within error, -0.087 ± 0.077
- EYSEEELKTHISKGTLGKFTVPMLKEACRAYGLKSGLKKKELLEALTKHFQD [Q40K] — higher, -0.06 ± 0.071
- EYSEEELKTHISKGTLGKFTVPMLKEACRAYGLKSGLKKLELLEALTKHFQD [Q40L] — within error, -0.335 ± 0.049
- EYSEEELKTHISKGTLGKFTVPMLKEACRAYGLKSGLKKMELLEALTKHFQD [Q40M] — higher, -0.004 ± 0.072
- EYSEEELKTHISKGTLGKFTVPMLKEACRAYGLKSGLKKNELLEALTKHFQD [Q40N] — higher, -0.009 ± 0.096
- EYSEEELKTHISKGTLGKFTVPMLKEACRAYGLKSGLKKPELLEALTKHFQD [Q40P] — within error, -0.322 ± 0.1
- EYSEEELKTHISKGTLGKFTVPMLKEACRAYGLKSGLKKRELLEALTKHFQD [Q40R] — within error, -0.111 ± 0.056
- EYSEEELKTHISKGTLGKFTVPMLKEACRAYGLKSGLKKSELLEALTKHFQD [Q40S] — higher, 0.101 ± 0.062
- EYSEEELKTHISKGTLGKFTVPMLKEACRAYGLKSGLKKTELLEALTKHFQD [Q40T] — higher, -0.006 ± 0.068
- EYSEEELKTHISKGTLGKFTVPMLKEACRAYGLKSGLKKVELLEALTKHFQD [Q40V] — higher, -0.056 ± 0.053
- EYSEEELKTHISKGTLGKFTVPMLKEACRAYGLKSGLKKWELLEALTKHFQD [Q40W] — within error, -0.155 ± 0.043
- EYSEEELKTHISKGTLGKFTVPMLKEACRAYGLKSGLKKYELLEALTKHFQD [Q40Y] — within error, -0.262 ± 0.089
- EYSEEELKTHISKGTLGKFTVPMLKEACRAYGLKSGLKKQALLEALTKHFQD [E41A] — within error, -0.296 ± 0.046
- EYSEEELKTHISKGTLGKFTVPMLKEACRAYGLKSGLKKQCLLEALTKHFQD [E41C] — within error, -0.296 ± 0.047
- EYSEEELKTHISKGTLGKFTVPMLKEACRAYGLKSGLKKQDLLEALTKHFQD [E41D] — higher, -0.083 ± 0.065
